From ChEMBL document CHEMBL3639331, “Buprenorphine analogs” (2015)

Amino acid sequences for entries named in this document (tags omitted).
UniProt P41145, whole entry: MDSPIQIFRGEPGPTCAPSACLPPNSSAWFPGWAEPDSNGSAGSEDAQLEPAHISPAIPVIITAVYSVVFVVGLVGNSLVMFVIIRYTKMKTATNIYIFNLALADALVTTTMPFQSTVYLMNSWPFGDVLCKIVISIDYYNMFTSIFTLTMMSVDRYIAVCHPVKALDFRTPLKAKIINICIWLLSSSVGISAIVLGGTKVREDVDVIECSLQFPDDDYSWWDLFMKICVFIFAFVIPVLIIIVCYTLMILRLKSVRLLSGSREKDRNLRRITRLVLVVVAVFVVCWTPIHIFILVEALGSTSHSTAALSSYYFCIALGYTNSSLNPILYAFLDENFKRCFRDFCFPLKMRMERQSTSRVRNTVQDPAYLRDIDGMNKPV
UniProt P41143, whole entry: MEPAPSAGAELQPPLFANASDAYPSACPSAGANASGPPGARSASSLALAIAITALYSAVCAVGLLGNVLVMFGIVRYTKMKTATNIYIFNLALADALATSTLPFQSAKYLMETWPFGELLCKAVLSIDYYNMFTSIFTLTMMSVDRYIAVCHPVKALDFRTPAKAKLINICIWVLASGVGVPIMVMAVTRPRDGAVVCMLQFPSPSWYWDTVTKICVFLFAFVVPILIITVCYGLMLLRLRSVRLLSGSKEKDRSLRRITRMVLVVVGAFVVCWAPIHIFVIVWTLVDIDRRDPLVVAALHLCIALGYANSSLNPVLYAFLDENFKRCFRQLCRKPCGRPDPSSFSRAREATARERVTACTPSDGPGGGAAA
UniProt P35372, whole entry: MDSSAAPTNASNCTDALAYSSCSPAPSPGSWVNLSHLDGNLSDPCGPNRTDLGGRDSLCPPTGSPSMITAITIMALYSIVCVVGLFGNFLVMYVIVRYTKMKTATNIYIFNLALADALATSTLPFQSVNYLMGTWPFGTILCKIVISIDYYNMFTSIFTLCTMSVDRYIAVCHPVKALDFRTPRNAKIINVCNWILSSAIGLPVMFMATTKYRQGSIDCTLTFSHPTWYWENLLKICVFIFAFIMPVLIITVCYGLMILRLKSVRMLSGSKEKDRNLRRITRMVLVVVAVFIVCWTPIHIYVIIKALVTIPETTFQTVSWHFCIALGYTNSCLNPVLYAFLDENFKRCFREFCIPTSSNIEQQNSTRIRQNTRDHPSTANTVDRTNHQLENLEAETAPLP

What was measured:
[1] = molecular target: Kappa-type opioid receptor (Homo sapiens, UniProt P41145); test: Binding Assay: Kippa-Opioid Receptor Binding Assay Procedures: Membranes from recombinant HEK-293 cells expressing the human kippa opioid receptor (kippa) (cloned in house) were prepared by lysing cells in ice cold hypotonic buffer (2.5 mM MgCl2, 50 mM HEPES, pH 7.4) (10 mL/10 cm dish) followed by homogenization with a tissue grinder/Teflon pestle. Membranes were collected by centrifugation at 30,; conditions: sf9
[2] = molecular target: Delta-type opioid receptor (Homo sapiens, UniProt P41143); test: Binding Assay: Delta-Opioid Receptor Binding Assay Procedures: delta-opioid Receptor Binding Assay Procedures were conducted as follows. Radioligand dose-displacement assays used 0.3 nM [3H]-Naltrindole (Perkin Elmer, Shelton, Conn.; 33.0 Ci/mmole) with 5 ug membrane protein (Perkin Elmer, Shelton, Conn.) in a final volume of 500 ul binding buffer (5 mM MgCl2, 5% DMSO, 50 mM Trizma base, pH 7.4).
Mu-type opioid receptor = Mu-type opioid receptor (Homo sapiens, UniProt P35372); test: Binding Assay: u-Opioid Receptor Binding Assay Procedures: Radioligand dose-displacement binding assays for u-opioid receptors used 0.3 nM [3H]-diprenorphine (Perkin Elmer, Shelton, Conn.), with […] membrane protein/well in a final volume of 500 ul binding buffer (10 mM MgCl2, 1 mM EDTA, 5% DMSO, 50 mM HEPES, pH 7.4). Reactions were carried out in the absence or presence of increasing concentrati

| Structure (SMILES) | Ki [1] [nM] | Ki [2] [nM] | Ki (Mu-type opioid receptor) [nM] |
| --- | --- | --- | --- |
| COC12CC[C@@]3(C[C@@H]1CNC(=O)Nc1ccccc1)[C@H]1Cc4ccc(O)c5c4[C@@]3(CCN1CC1CC1)[C@H]2O5 | 0.08 | – | – |
| CO[C@]12CC[C@@]3(C[C@@H]1CNS(=O)(=O)c1ccccc1)[C@H]1Cc4ccc(O)c5c4[C@@]3(CCN1CC1CC1)[C@H]2O5 | 0.08 | – | – |
| CO[C@]12CC[C@@]3(C[C@@H]1CNC(=O)CN)[C@H]1Cc4ccc(O)c5c4[C@@]3(CCN1CC1CC1)[C@H]2O5 | 0.07 | 16.2 | – |
| COC12CC[C@@]3(C[C@@H]1CNC(=O)CCCCC(N)=O)[C@H]1Cc4ccc(O)c5c4[C@@]3(CCN1CC1CC1)[C@H]2O5 | 0.47 | – | – |
| CO[C@]12CC[C@@]3(C[C@@H]1CNC(=O)[C@@H](N)Cc1ccc(O)cc1)[C@H]1Cc4ccc(O)c5c4[C@@]3(CCN1CC1CC1)[C@H]2O5 | 0.13 | – | – |
| CO[C@]12CC[C@@]3(C[C@@H]1CNC(=O)[C@@H](N)Cc1c[nH]cn1)[C@H]1Cc4ccc(O)c5c4[C@@]3(CCN1CC1CC1)[C@H]2O5 | – | 58.8 | – |
| CO[C@]12CC[C@@]3(C[C@@H]1CNC(=O)[C@H](CO)NC(C)=O)[C@H]1Cc4ccc(O)c5c4[C@@]3(CCN1CC1CC1)[C@H]2O5 | – | 20.3 | – |
| CO[C@]12CC[C@@]3(C[C@@H]1CNC(=O)[C@@H](N)CC(=O)O)[C@H]1Cc4ccc(O)c5c4[C@@]3(CCN1CC1CC1)[C@H]2O5 | 3.05 | 60.4 | 4.89 |
| CO[C@]12CC[C@@]3(C[C@@H]1CNS(=O)(=O)c1ccc(C)cc1)[C@H]1Cc4ccc(O)c5c4[C@@]3(CCN1CC1CC1)[C@H]2O5 | 0.07 | – | – |
